Series [1] in a line: Drug release from heat-molded pellets/articles in release buffer (PBS, 1% FBS in PBS or 100% FBS) at 37° C., HPLC quantification. The series is classed as physicochemical. To be noted: for Drug release mechanism of articles: articles that undergo physical form (shape) changes, FIGS. 26A and 26B.
For series [2] the following is noted: for Physical form of articles after two weeks: after two weeks in PBS, FIGS. 23D, 24D, 25D; for Physical form (shape) changes of articles: physiologically relevant conditions.
The conditions of series [3]: microparticles, 50% FBS in PBS.
Setting [4] is: FIGS. 26A and 26B (pellets in PBS at 37° C.).

Read-outs that look alike come from different tables or passages of the source. Some results are limits rather than exact numbers.

As to “Dexamethasone-Heptaethylene Glycol-Dexamethasone [Compound 11]”, in series [1] (setting [4]), the “Dexamethasone release profile from articles” value (from here on “Dexamethasone release profile”) is “non-linear”. The “Drug release mechanism of articles” value in series [1] is “not via surface erosion”. Besides, in series [2], the “Physical form of articles after two weeks” value (shortened to “Physical form of articles”) is reported as “form into spherical droplets” and the “Physical form (shape) changes of articles” value is reported as “undergo physical form (shape) changes”.
For the substance “Dexamethasone-Hexane-Dexamethasone [Compound 5]”, in series [1], the “Dexamethasone release profile” value is “generally linear” and the “Period of dexamethasone release for which articles might be preferred” value is at least 6 months.
As to “Dexamethasone-Nonaethylene Glycol-Dexamethasone [Compound 12]”, the “Dexamethasone release profile” value in series [1] (setting [4]) is on record as “non-linear”. The “Cumulative dexamethasone release at which release stops” value in series [1] (after just 2 weeks in PBS) is “ca. 3%”. Further, the “Drug release mechanism of articles” value in series [1] is “not via surface erosion”. For the same substance, in series [2], the “Physical form of articles” value is listed as “form into spherical droplets” and the “Physical form (shape) changes of articles” value is listed as “undergo physical form (shape) changes”.
For the substance “Dexamethasone-Polyethylene Glycol (MW = 200)-Dexamethasone [Compound 10]”, the “Dexamethasone release profile” value in series [1] (over the course of 12 weeks or more, FIGS. 1E, 12E, 15C, 17D) is “generally linear”.
Consider “Dexamethasone-Polyethylene Glycol (MW = 300)-Dexamethasone [Compound 13]”, for which the “Drug release mechanism of articles” value in series [1] is on record as “not via surface erosion”. In series [2], the “Physical form of articles” value is on record as “form into spherical droplets” and the “Physical form (shape) changes of articles” value was “undergo physical form (shape) changes”.
For “Dexamethasone-Triethylene Glycol-Hydrocortisone [Compound 4]”, in series [1] (PBS and/or 100% FBS, 37° C.), the “Drugs released from pellets of heterodimer” value is “released both dexamethasone and hydrocortisone”.
“Triamcinolone Acetonide-Triethylene Glycol-Triamcinolone Acetonide [Compound 3]”: the “Drug release from nano- and micro-particles in the glassy state” value in series [3] was “Sustained Release”.

These data come from US20190275167A1, “GLASS FORMULATIONS AND USES THEREOF” (priority 2018, published 2019).
